Target: T1, human Wee1 kinase aa215-647 (Homo sapiens, UniProt P30291)
T1 construct: human Wee1 kinase aa215-647; purchased Onyx Pharmaceuticals; host or cells: baculovirus protein expression system
T1 sequence (P30291 215-646 limits assumed): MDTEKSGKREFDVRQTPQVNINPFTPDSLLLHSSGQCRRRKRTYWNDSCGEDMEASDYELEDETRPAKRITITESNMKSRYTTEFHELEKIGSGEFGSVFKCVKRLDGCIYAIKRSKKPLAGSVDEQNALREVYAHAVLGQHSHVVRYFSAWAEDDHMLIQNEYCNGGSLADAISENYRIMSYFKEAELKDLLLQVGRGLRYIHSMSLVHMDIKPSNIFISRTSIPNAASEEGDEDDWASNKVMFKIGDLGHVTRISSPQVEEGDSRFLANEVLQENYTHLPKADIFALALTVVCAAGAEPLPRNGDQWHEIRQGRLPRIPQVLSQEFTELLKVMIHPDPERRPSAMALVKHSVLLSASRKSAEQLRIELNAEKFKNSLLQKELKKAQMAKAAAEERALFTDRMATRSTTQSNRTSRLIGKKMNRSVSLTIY
Experiment: Wee1 inhibition filter binding assay (OY)
Type: biochemical
Conditions: isolated Wee1 kinase, Poly Ornithine:Tyrosine (4:1) substrate; read-out: WEE1OY IC50

- IC50: 295 nM
SMILES: CN(C)CCNC(=O)CCn1c2ccc(O)cc2c2c3c(c(-c4ccccc4)cc21)C(=O)NC3=O [Example 214, N-[2-(Dimethylamino)ethyl]-3-(9-hydroxy-1,3-dioxo-4-phenyl-2,3-dihydropyrrolo[3,4-c]carbazol-6 (1H)-yl)propanamide]

Source: patent publication US7094798B1, “Inhibitors of checkpoint kinases (Wee1 and Chk1)” (Pfizer Inc, priority 2002, dated 2006)
